The values below come from US10053463B2 (Janssen Pharmaceutica NV, priority 2013, dated 2018).

Sequences of proteins named here, by UniProt entry; tags and fusion partners are left off. A change or cut given only in a name is not applied to a line headed by its entry.
UniProt Q99572: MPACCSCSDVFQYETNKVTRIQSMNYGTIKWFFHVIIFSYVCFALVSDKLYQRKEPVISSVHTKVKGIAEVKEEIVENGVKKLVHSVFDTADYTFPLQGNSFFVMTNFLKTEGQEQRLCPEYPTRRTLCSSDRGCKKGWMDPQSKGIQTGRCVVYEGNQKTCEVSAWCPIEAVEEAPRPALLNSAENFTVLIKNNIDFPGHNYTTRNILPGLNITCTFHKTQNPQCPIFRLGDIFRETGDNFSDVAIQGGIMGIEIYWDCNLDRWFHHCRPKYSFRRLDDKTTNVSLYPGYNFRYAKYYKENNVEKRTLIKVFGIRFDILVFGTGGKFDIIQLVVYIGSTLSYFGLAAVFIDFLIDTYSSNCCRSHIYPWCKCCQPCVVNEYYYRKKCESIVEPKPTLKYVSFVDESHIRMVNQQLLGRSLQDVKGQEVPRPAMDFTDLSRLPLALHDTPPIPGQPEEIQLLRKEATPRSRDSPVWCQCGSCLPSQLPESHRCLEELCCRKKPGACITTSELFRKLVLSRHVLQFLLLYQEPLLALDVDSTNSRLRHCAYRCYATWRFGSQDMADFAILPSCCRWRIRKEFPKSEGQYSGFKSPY

This test has as its target P2X7 (Homo sapiens (Human), UniProt Q99572). The experiment in a line: Radioligand binding, human P2X7-1321N1 cell membranes, tracer tritiated A-804598. The following applies: Table 2. As for the experimental part: P2X7 Antagonism in Recombinant Human P2X7 Cells or Recombinant Rat P2X7 Cells: (a) Ca^2+ Flux and (b) Radioligand Binding
(b) Radioligand Binding: human or rat P2X7-1321N1 cells were collected and frozen @−80° C. On the day of the experiment, cell membrane preparations were made according to standard published methods. The total assay volume was 100 μl:10 μl compound (10×)+(b) 40 μl tracer (2.5×)+50 μl membrane (2×). The tracer used for the assay was tritiated A-804598. The compound can be prepared as described in the literature. (Donnelly-Roberts, D. Neuropharmacology 2008, 56 (1), 223-229.) Compounds, tracer and membranes were incubated for 1 hour @ 4° C. The assay was terminated by filtration (GF/B filters pre-soaked with 0.3% PEI) and washed with washing buffer (Tris-HCl 50 mM). The IC50 generated in the binding assay was corrected for tracer concentration and affinity of the tracer to derive at the affinity (K) of the test compounds. […] Data are analyzed and graphed on Graphpad Prism 5. For analysis, each concentration point is averaged from triplicate values and the averaged values are plotted on Graphpad Prism.

The Ki is a dissociation constant, usually derived from enzyme kinetics or from competition with a known ligand. In turn, `O=C1c2nnc(-c3cnccn3)n2C[C@H](C2CC2)N1Cc1cccc(C(F)(F)F)c1Cl` (single isomer, unassigned) [Example 63, (6S*)-7-[2-Chloro-3-(trifluoromethyl)benzyl]-6-cyclopropyl-3-pyrazin-2-yl-6,7-dihydro[1,2,4]triazolo[4,3-a]pyrazin-8(5H)-one] gave a Ki of 3.2 nM.
